C2C12 statin: protects C2C12 myotubes from simvastatin toxicity. ATP luminescence, 48 h; scaled: DMSO 0, geranylgeraniol control 100. rescue of ATP level, % at 7.49 µM. 0.78% of 330,000 active;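 active = mean ATP rescue above about 67%, or every replicate alone reaching that limit, limit read from the data, passing the limit was not always enough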;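 note: myotubes were challenged with 10 µM simvastatin during compound exposure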
miR-122 sensor: inhibitors of miR-122 in Huh7 cells; 0.3% of 340,000 active; Huh7 miR-122 Renilla luciferase sensor, 48 h; neutral wells = 0, positive control = 100; activation (reporter increase), % at 12.5 µM;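 active = mean replicate activation score at least 90 and every replicate individually at or above 90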;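 note: higher luciferase means less miR-122 activity so hits act as miR-122 inhibitors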
Yeast UUG start: alters start codon recognition fidelity in yeast. S. cerevisiae UUG-firefly luciferase reporter, luminescence/redox ratio. activity score, % at 18.7 µM. 0.13% of 350,000 active. AID 602363;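 active = replicate mean at a twofold rise or more, about +100% in these data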;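 also: firefly luciferase made from a UUG start codon reports start codon fidelity; reporter light over untreated wells divided by growth signal over untreated wells; some hits fall short of that in this replicate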
Glyco luc inh: blocks N-linked glycosylation in D54 reporter cells | AID 588692 | D54 ERlucT glycosylation luciferase reporter, 24 h; percent of 100 nM tunicamycin response | reporter increase, % at 12.5 µM | 0.23% of 360,000 active;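 active = mean luciferase reporter signal, scaled so untreated is 0 and the glycosylation-blocking control 100, at or above a set limit in every replicate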;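 note: luciferase carries N-glycosylation sites so blocking glycosylation raises the light; 0% = median of neutral control wells and 100% = median of 100 nM tunicamycin wells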
Cneo AK release: Cryptococcus neoformans lysis via adenylate kinase release. C. neoformans lysis, adenylate kinase release luminescence, 4 h; normalised: neutral wells 0, clomiphene wells 100. lysis activity, % at 15 µM. 0.2% of 360,000 active. AID 651654;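 active = mean lysis activity across replicates of at least 80%, whatever share of replicates individually reach that level; inactive = mean lysis activity below 80%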
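Assay system: log-phase C. neoformans yeast / Quantity: yeast cell density of 5 × 10^6 cells/mL / Medium: fresh YPD growth medium / Compound: single dose / Timing: static 4 h at 37 °C with compound, 1 h detection / Measured by: adenylate kinase release luminescence / Read-out: lysis from increased AK signal / Benchmarks: Clomiphene as positive lysis control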
Active calls of the source: *; / = no result given; [ ] = remark or other dose. Only some compounds are listed: those with a hit (about 1.2% of all), similar ones and a draw of the others.

molecule,C2C12 statin,miR-122 sensor,Yeast UUG start,Glyco luc inh,Cneo AK release
O=C(Nc1cccc(-n2cnnn2)c1)c1cc(Cl)ccc1Cl,-8.4,0.1,-21.2,33.5*,-0.3
CCOc1cc(/C=C2\CCn3c2nc2cc(Cl)ccc2c3=O)ccc1O,-6.4,3.3,-5.7,5.3,0.5
Cc1ccc(S(=O)(=O)N(C)C[C@H]2OCCCC[C@H](C)Oc3ccc(NC(=O)CCC(F)(F)F)cc3C(=O)N([C@@H](C)CO)C[C@@H]2C)cc1,/,0.7[16.7 µM],6.9,/,13.6
C=C1CC(C)OC(c2ccccc2OCC(O)CN2CCCCC2)C1 (stereo not drawn),115.4*,-2.2,2.0,-2.8,3.2
OC(COc1cccc2ccccc12)CN1CCCC1 (stereo not drawn),-10.3,10.3,-10.3,-0.4,-1.6
CCOc1ccc(CSC(CC(=O)O)C(=O)O)cc1 (stereo not drawn),102.6*,-7.3,-0.3,-1.8,-6.6
C[C@@H]1CN([C@@H](C)CO)S(=O)(=O)c2ccc(-c3ccncc3)cc2O[C@@H]1CN(C)C(=O)C1CCCCC1,-7.6,-6.3[16.7 µM],-15.6,/,/
Cc1noc(C)c1S(=O)(=O)N(C)C[C@@H]1OCCCC[C@@H](C)Oc2ccc(NC(=O)CCCCCC(=O)Nc3ccccc3N)cc2C(=O)N([C@H](C)CO)C[C@@H]1C,/,9.5[16.7 µM],-5.7,/,108.1*
Cc1noc(C)c1NC(=O)Nc1ccc2c(c1)C(=O)N([C@@H](C)CO)C[C@@H](C)[C@H](CN(C)S(=O)(=O)c1c(C)noc1C)OCCCC[C@@H](C)O2,76.7*,8.7[16.7 µM],6.8,/,34.3
Cc1noc(C)c1NC(=O)Nc1ccc2c(c1)C(=O)N([C@H](C)CO)C[C@@H](C)[C@H](CN(C)S(C)(=O)=O)OCCCC[C@@H](C)O2,/,15.0[16.7 µM],19.9,/,103.1*

Next part.
molecule,C2C12 statin,miR-122 sensor,Yeast UUG start,Glyco luc inh,Cneo AK release
Cc1noc(C)c1NC(=O)Nc1ccc2c(c1)C(=O)N([C@H](C)CO)C[C@H](C)[C@@H](CN(C)S(=O)(=O)c1c(C)noc1C)OCCCC[C@@H](C)O2,20.0,8.4[16.7 µM],15.2,/,-0.6
Cc1noc(C)c1S(=O)(=O)N(C)C[C@@H]1OCCCC[C@@H](C)Oc2ccc(NC(=O)CCCN(C)C)cc2C(=O)N([C@H](C)CO)C[C@@H]1C,/,0.9[16.7 µM],6.9,/,-0.6
CCOc1ccc(N(CC(=O)Nc2ccc(OC)cc2)S(C)(=O)=O)cc1,-8.5,-4.1,9.7,-1.5,2.4
CCOc1ccc(NC(=O)CN(c2ccc(OC)cc2)S(C)(=O)=O)cc1,110.8*,-5.8,-6.7,0.3,8.1
CC(C)(C)c1ccc(/C=C(\c2nc3ccccc3[nH]2)S(=O)(=O)c2ccccc2)cc1,41.1,-3.2,-13.1,-12.6,-2.4
Cc1cccc(/C=C(\c2nc3ccccc3[nH]2)S(=O)(=O)c2ccccc2)c1,77.9*,-0.7,/,0.6,/
COc1cccc(-n2nnnc2SCC(=O)NCCc2ccc(OC)c(OC)c2)c1,/,/,/,0.1,/
COc1cccc(-n2nnnc2SCC(=O)NCCc2ccccc2)c1,101.6*,-3.2,-2.6,-3.8,-1.5
COc1ccccc1-c1cn(CC[C@@H]2CC[C@H](NC(=O)C3CCOCC3)[C@@H](CO)O2)nn1,-5.4,0.7[16.7 µM],-0.1,/,-1.8
CCN(C1CCCCC1)S(=O)(=O)CCNC(=O)c1ccc(OC)cc1,23.1,-1.6,-8.4,0.2,-0.4

Next section; it opens with the two that closed the last part.
molecule,C2C12 statin,miR-122 sensor,Yeast UUG start,Glyco luc inh,Cneo AK release
COc1ccccc1-c1cn(CC[C@@H]2CC[C@H](NC(=O)C3CCOCC3)[C@@H](CO)O2)nn1,-5.4,0.7[16.7 µM],-0.1,/,-1.8
CCN(C1CCCCC1)S(=O)(=O)CCNC(=O)c1ccc(OC)cc1,23.1,-1.6,-8.4,0.2,-0.4
Cc1ccc(S(=O)(=O)NCCN=C(CN2CCOCC2)NS(=O)(=O)c2ccc(C)cc2)cc1,/,1.2,6.3,2.5,-1.4
Cc1ccc(S(=O)(=O)NCCN=C(CN2CCCC2)NS(=O)(=O)c2ccc(C)cc2)cc1,112.3*,61.8,-2.2,-1.9,-2.5
O=C1c2cccc3c([N+](=O)[O-])ccc(c23)C(=O)N1c1ccc(Cl)cn1,129.2*,8.0,2.6,-15.9,15.1
O=C1O/C(=C/C(=O)N2CCOCC2)c2ccccc21,74.5*,2.1,-20.0,-2.1,-0.7
O=C1O/C(=C\C(=O)N2CCOCC2)c2ccccc21,-5.8,0.3,-15.7,-0.4,8.7
O=C(c1cn(Cc2ccccc2)nc1-c1ccc(Cl)cc1)N1CCN(c2ccccn2)CC1,3.4,119.9*,5.6,-0.9,-0.3
Cc1ccc(-c2nn(Cc3ccccc3)cc2C(=O)N2CCN(c3ccccn3)CC2)cc1,-0.2,107.3*,-4.5,-2.1,1.4
COc1ccc(NC(=O)Cn2ccc(C(F)(F)F)n2)cc1S(=O)(=O)N1CCOCC1,100.8*,-1.9,-23.1,4.8,-1.3
COc1ccc(NC(=O)CN2CCN(C(C)=O)CC2)cc1S(=O)(=O)N1CCOCC1,-11.3,4.6,18.4,19.4,4.2
C=CCOc1c(Br)cc(CNn2nnnc2N)cc1OC,111.2*,-7.2,-2.8,-2.1,-0.2

Next compounds
molecule,C2C12 statin,miR-122 sensor,Yeast UUG start,Glyco luc inh,Cneo AK release
CCCC(c1nnnn1Cc1ccc(OC)cc1)N1CCN(c2ccccc2)CC1 (stereo not drawn),136.6*,-1.5,16.9,3.5,-2.1
COc1ccc(Cn2nnnc2C(CC(C)C)N2CCN(c3ccccc3)CC2)cc1 (stereo not drawn),12.4,1.0,-6.2,-5.4,-5.0
O=C(Nc1ccc(F)cc1)N1CCCCN2[C@@H](CO)[C@@H](c3ccc(-c4ccccc4F)cc3)[C@@H]2C1,/,3.3[16.7 µM],3.7,/,3.5
Cc1ccc2nsnc2c1S(=O)(=O)N1CCOCC1,-11.6,2.0,-12.7,3.3,4.1
COc1ccc2c(c1)OC[C@H]1[C@@H]2N2C(=O)[C@@H](C)NC(=O)[C@@]2(C)[C@H]1c1ccccc1,-1.2,2.8,-15.7,-0.3,0.4
COc1cc2c(cc1OC)C(=O)N1[C@H]3c4ccccc4OC[C@@H]3[C@H](c3ccccc3)[C@]1(C)C(=O)N2,17.7,/,-9.3,41.1*,-4.8
COc1ccc2c(c1)OC[C@H]1[C@H]2N2C(=O)c3cc(OC)c(OC)cc3NC(=O)[C@@]2(C)[C@H]1c1ccccc1,10.7,-18.0,-2.2,47.3*,-5.1
COc1cc(S(=O)(=O)N2CCCCCC2)ccc1Cl,99.6*,36.4,-3.0,-2.1,-3.3
COc1cc(S(=O)(=O)N2CCN(c3ccccc3F)CC2)ccc1Cl,77.7*,-2.3,13.5,-3.8,-3.7
CCCN1[C@H](C(=O)NC2Cc3ccccc3C2)[C@@H](CO)[C@@H]2Cn3c(ccc(C4=CCCCC4)c3=O)[C@@H]21,2.8,/,/,/,2.9

More entries:
molecule,C2C12 statin,miR-122 sensor,Yeast UUG start,Glyco luc inh,Cneo AK release
CNC(=O)CC(=O)Nc1ccccc1C(=O)O,104.9*,-1.6,-15.6,-0.1,0.3
CC(CC(=O)N1CCN(S(=O)(=O)c2ccc([N+](=O)[O-])cc2)CC1)c1ccccc1 (stereo not drawn),9.1,-8.0,-5.1,-0.6,-0.5
C[C@@H]1CN([C@@H](C)CO)C(=O)c2cc(-c3ccc(F)cc3)cnc2O[C@@H]1CN(C)Cc1ccccn1,-1.8,7.2[16.7 µM],-16.4,/,6.2
O=C1CCc2cc(NS(=O)(=O)c3ccccc3)cc3c2N1CCC3,-21.8,63.1,/,-0.4,/
Cc1cccc(NS(=O)(=O)c2cc3c4c(c2)CCC(=O)N4CCC3)c1,-12.6,181.3*,/,-1.4,/
C[C@H]1CN([C@@H](C)CO)C(=O)c2cc(C#Cc3ccncc3)cnc2O[C@@H]1CN(C)C(=O)CN(C)C,25.1,-6.1[16.7 µM],-9.0,/,-1.3

Record cards, as listed above. Order of values: C2C12 statin	miR-122 sensor	Yeast UUG start	Glyco luc inh	Cneo AK release
`CC(CC(=O)N1CCN(S(=O)(=O)c2ccc([N+](=O)[O-])cc2)CC1)c1ccccc1` (stereo not drawn) is listed with 9.1	-8.0	-5.1	-0.6	-0.5
`CNC(=O)CC(=O)Nc1ccccc1C(=O)O` is listed with 104.9*	-1.6	-15.6	-0.1	0.3

Screening results (PubChem)
